From patent US20040266784A1, “Calcium channel inhibitors comprising benzhydril spaced from piperazine” (priority 1998, published 2004)
Like-named read-outs stand apart in the source and are kept apart here.

By UniProt entry, the sequences of proteins in these tests, tags left out. Where a name states a change or a piece, a line headed by the entry shows the natural chain unless it says otherwise. Residues count along the entry.
UniProt Q02294, whole entry: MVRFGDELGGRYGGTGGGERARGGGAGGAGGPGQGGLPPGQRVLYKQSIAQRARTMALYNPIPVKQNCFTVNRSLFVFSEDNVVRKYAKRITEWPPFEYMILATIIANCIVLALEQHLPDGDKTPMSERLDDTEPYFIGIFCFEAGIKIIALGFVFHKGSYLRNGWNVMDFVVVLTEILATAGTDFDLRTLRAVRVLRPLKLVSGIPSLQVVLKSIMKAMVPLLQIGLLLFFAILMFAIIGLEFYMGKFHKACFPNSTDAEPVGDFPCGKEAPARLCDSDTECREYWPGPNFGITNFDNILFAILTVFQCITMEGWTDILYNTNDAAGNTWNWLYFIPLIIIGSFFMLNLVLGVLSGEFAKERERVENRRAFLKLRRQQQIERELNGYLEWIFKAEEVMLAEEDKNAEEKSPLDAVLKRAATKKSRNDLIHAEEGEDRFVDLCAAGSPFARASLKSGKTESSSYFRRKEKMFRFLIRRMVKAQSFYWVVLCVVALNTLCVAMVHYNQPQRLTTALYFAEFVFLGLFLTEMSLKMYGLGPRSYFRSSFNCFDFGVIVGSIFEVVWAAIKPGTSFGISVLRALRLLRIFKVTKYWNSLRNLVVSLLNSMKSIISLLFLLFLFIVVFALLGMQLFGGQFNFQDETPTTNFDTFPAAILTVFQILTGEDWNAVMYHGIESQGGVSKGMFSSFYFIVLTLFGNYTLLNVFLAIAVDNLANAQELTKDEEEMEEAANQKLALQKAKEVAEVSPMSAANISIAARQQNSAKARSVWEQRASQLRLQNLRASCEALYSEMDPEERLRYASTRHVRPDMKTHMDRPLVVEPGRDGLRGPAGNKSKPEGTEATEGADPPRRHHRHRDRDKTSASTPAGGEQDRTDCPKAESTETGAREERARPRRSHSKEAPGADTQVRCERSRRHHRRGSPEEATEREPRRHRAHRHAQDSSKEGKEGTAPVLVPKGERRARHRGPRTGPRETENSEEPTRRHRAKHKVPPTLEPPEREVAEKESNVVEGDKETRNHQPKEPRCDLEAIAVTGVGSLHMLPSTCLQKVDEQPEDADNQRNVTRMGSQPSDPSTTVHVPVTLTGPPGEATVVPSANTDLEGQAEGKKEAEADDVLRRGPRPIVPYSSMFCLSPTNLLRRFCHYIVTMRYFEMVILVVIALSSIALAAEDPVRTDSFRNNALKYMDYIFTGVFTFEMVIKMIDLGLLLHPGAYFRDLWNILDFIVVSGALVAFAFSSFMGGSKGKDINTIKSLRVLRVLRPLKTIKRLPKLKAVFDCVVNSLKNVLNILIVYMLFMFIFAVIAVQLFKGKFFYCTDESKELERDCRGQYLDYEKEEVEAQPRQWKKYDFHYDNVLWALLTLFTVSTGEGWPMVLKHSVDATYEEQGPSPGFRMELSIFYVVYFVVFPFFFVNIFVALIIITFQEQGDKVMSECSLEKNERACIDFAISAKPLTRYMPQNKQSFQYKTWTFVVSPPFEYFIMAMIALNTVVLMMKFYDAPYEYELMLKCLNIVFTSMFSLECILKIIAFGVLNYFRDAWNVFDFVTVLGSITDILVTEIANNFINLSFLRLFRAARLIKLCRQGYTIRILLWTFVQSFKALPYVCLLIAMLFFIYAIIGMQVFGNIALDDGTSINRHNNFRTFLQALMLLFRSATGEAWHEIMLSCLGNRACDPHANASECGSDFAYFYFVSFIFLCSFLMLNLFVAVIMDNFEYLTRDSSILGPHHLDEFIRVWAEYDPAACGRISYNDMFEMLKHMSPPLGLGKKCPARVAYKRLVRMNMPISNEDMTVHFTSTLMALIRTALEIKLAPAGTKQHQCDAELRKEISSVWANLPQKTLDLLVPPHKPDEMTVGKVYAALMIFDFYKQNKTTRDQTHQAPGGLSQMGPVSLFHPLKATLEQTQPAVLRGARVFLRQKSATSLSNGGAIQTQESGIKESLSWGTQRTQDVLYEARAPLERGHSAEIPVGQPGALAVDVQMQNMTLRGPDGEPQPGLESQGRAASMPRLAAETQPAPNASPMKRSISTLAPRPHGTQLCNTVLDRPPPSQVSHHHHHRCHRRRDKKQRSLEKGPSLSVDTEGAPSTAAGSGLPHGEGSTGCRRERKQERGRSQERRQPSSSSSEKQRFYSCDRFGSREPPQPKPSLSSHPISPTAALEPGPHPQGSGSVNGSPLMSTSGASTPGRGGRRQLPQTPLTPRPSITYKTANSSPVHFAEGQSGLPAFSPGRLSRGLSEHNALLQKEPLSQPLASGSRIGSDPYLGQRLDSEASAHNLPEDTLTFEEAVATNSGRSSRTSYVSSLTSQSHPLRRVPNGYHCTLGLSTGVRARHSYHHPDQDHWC
UniProt P54290, 25-944 partner limits assumed: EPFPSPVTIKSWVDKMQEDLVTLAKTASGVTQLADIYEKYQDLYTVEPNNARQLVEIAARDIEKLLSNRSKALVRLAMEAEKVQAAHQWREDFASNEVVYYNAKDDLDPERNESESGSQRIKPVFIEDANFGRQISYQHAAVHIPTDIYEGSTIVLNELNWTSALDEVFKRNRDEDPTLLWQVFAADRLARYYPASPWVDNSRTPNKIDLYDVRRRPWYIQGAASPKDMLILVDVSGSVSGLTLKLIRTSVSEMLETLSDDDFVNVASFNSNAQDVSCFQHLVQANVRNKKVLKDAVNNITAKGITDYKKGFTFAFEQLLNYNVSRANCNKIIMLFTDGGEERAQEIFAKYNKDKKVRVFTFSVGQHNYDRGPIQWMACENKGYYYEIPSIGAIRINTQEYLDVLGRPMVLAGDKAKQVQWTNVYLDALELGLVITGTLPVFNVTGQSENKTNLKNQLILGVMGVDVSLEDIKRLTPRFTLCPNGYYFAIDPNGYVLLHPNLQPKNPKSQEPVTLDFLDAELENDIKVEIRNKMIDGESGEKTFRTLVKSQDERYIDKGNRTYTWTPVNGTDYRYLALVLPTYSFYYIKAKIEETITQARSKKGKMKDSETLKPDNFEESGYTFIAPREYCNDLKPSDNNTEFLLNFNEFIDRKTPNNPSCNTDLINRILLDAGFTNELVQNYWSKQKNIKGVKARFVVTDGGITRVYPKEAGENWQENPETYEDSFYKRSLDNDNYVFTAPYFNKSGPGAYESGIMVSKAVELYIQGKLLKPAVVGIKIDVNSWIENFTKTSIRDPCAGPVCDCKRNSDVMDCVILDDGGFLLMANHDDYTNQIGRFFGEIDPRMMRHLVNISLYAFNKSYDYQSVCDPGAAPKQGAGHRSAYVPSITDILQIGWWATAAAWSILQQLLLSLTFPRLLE
UniProt P54290, 945-1091 partner limits assumed: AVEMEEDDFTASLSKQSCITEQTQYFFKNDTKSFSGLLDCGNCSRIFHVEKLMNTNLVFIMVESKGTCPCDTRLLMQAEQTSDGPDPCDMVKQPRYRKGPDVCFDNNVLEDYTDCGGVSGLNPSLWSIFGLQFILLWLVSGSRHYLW
UniProt P54283, whole entry partner: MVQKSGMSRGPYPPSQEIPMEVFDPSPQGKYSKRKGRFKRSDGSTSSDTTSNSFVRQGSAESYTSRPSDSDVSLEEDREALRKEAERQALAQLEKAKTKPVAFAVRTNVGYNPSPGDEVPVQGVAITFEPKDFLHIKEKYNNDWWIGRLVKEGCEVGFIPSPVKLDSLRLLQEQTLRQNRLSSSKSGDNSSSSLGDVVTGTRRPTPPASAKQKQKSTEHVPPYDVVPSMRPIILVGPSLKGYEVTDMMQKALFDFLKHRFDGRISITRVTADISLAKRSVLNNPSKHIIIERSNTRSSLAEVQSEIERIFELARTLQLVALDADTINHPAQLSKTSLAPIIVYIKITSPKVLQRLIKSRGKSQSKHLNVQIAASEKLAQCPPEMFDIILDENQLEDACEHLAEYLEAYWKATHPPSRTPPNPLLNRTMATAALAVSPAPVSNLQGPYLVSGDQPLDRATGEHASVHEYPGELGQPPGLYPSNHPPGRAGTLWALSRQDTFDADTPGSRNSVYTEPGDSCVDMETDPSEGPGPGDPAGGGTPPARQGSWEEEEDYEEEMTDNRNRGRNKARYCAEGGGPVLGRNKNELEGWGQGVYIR

Target: rat N-type channels (α1B+α2δ+β1b subunits) (Rattus norvegicus, UniProt Q02294)
Assay: Whole cell patch clamp, N-type calcium channel block in HEK 293 cells
Type: cell-based
[1] = read-out: IC50 for N-type Calcium Channel Block (0.067 Hz), 0.067 Hz, tested form: 2HCl
[2] = read-out: IC50 for N-type Calcium Channel Block (0.2 Hz), 0.2 Hz, tested form: 2HCl
[3] = read-out: IC50 for N-type Calcium Channel Block (0.067 Hz), 0.067 Hz, tested form: HCl
[4] = read-out: IC50 for N-type Calcium Channel Block (0.2 Hz), 0.2 Hz, tested form: HCl
[5] = read-out: IC50 for N-type Calcium Channel Block (0.067 Hz), 0.067 Hz
[6] = read-out: IC50 for N-type Calcium Channel Block (0.2 Hz), 0.2 Hz
[7] = read-out: IC50 for N-type Calcium Channel Block (0.067 Hz), 0.067 Hz, tested form: 3HCl
[8] = read-out: IC50 for N-type Calcium Channel Block (0.2 Hz), 0.2 Hz, tested form: 3HCl

| IC50 [5] [nM] | IC50 [6] [nM] | Compound | further results |
| --- | --- | --- | --- |
|  |  | CC(C)(C)c1cc(CN2CCN(CCCCCC(c3ccc(F)cc3)c3ccc(F)cc3)CC2)cc(C(C)(C)C)c1 | IC50 [1]: 181 nM; IC50 [2]: 142 nM |
|  |  | COc1ccc(OCCN2CCN(C(=O)CCCCC(c3ccc(F)cc3)c3ccc(F)cc3)CC2)cc1 | IC50 [3]: 436 nM; IC50 [4]: 259 nM |
|  |  | Fc1ccc(C(CCCCCN2CCN(c3ncccn3)CC2)c2ccc(F)cc2)cc1 | IC50 [1]: 337 nM; IC50 [2]: 268 nM |
|  |  | CC(C)(C)c1cc(CN2CCN(CCCCCC(c3ccc(F)cc3)c3ccc(F)cc3)CC2)cc(C(C)(C)C)c1O | IC50 [1]: 62 nM; IC50 [2]: 44 nM |
| 403 | 296 | O=C(CCCCC(c1ccc(F)cc1)c1ccc(F)cc1)N1CCN(C2c3ccccc3Sc3ccccc32)CC1 |  |
| 150 | 90 | Fc1ccc(C(CCCCCN2CCN(CCSc3ccccc3)CC2)c2ccc(F)cc2)cc1 |  |
|  |  | O=C(CCCCC(c1ccc(F)cc1)c1ccc(F)cc1)N1CCN(c2ncccn2)CC1 | IC50 [3]: 362 nM; IC50 [4]: 257 nM |
| 610 | 410 | COc1c(C(C)(C)C)cc(C(=O)N2CCN(C(=O)CCCCC(c3ccc(F)cc3)c3ccc(F)cc3)C(=O)C2)cc1C(C)(C)C |  |
| 260 |  | COc1cc(C(=O)N2CCN(CCCCCC(c3ccc(F)cc3)c3ccc(F)cc3)C(=O)C2)cc(OC)c1OC |  |
| 125 | 60 | O=C(CCCCC(c1ccc(F)cc1)c1ccc(F)cc1)N1CCN(CCSc2ccccc2)CC1 |  |
|  |  | CN(C)CCOc1c(C(C)(C)C)cc(CN2CCN(CCCCCC(c3ccc(F)cc3)c3ccc(F)cc3)CC2)cc1C(C)(C)C | IC50 [7]: 82 nM; IC50 [8]: 41 nM |
| 399 | 267 | Fc1ccc(C(CCCCCN2CCN(CCOc3ccccc3)CC2)c2ccc(F)cc2)cc1 |  |
| 430 | 280 | O=C(CCCCC(c1ccc(F)cc1)c1ccc(F)cc1)N1CCN(CCSc2nc3ccccc3s2)CC1 |  |
|  |  | O=C(CCCCC(c1ccc(F)cc1)c1ccc(F)cc1)N1CCN(CCOc2ccc(F)cc2F)CC1 | IC50 [3]: 200 nM; IC50 [4]: 93 nM |
|  |  | COc1cc(CN2CCN(CCCCOC(c3ccc(F)cc3)c3ccc(F)cc3)CC2)cc(OC)c1OC | IC50 [1]: 575 nM; IC50 [2]: 334 nM |
| 380 | 240 | O=C(CCCC(c1ccc(F)cc1)c1ccc(F)cc1)CN1CCN(C(=O)c2ccc(OC(F)(F)F)cc2)CC1 |  |
|  |  | Fc1ccc(C(CCCCCN2CCN(CCNc3ccccc3)CC2)c2ccc(F)cc2)cc1 | IC50 [7]: 280 nM; IC50 [8]: 173 nM |
| 346 | 134 | CN(C)CCOc1c(C(C)(C)C)cc(C(=O)N2CCN(C(=O)CCCCC(c3ccc(F)cc3)c3ccc(F)cc3)CC2)cc1C(C)(C)C |  |
|  |  | COc1cc(CN2CCN(C(=O)CCCCCCCC(c3ccc(F)cc3)c3ccc(F)cc3)CC2)cc(OC)c1OC | IC50 [3]: 251 nM; IC50 [4]: 157 nM |
| 96 | 51 | Fc1ccc(C(CCCCCN2CCN(CCOc3ccc(F)cc3F)CC2)c2ccc(F)cc2)cc1 |  |
| 302 | 175 | CC(C)(C)c1cc(CN2CCN(C(=O)CCCCC(c3ccc(F)cc3)c3ccc(F)cc3)CC2)cc(C(C)(C)C)c1O |  |

| IC50 [5] [nM] | IC50 [6] [nM] | Compound | further results |
| --- | --- | --- | --- |
|  |  | Cc1cc(OCCN2CCN(CCCCCC(c3ccc(F)cc3)c3ccc(F)cc3)CC2)c(C)c(C)c1N | IC50 [7]: 480 nM; IC50 [8]: 340 nM |
| 122 | 101 | Fc1ccc(C(CCCCCN2CCN(C3c4ccccc4Sc4ccccc43)CC2)c2ccc(F)cc2)cc1 |  |
| 242 | 192 | O=C(CCCCC(c1ccc(F)cc1)c1ccc(F)cc1)N1CCN(C(=O)c2cc(Br)c(O)c(Br)c2)CC1 |  |
|  |  | COc1ccc(OCCN2CCN(CCCCCC(c3ccc(F)cc3)c3ccc(F)cc3)CC2)cc1 | IC50 [1]: 169 nM; IC50 [2]: 91 nM |
| 312 | 250 | O=C(CCCCC(c1ccc(F)cc1)c1ccc(F)cc1)N1CCN(C(=O)c2ccc(Br)cc2)CC1 |  |
| 445 | 168 | O=C(CCCCC(c1ccc(F)cc1)c1ccc(F)cc1)N1CCN(CCOc2ccc(Cl)cc2Cl)CC1 |  |
|  |  | COc1cc(C(=O)N2CCN(CCCCOC(c3ccc(F)cc3)c3ccc(F)cc3)CC2)cc(OC)c1OC | IC50 [3]: 364 nM; IC50 [4]: 236 nM |
| 184 | 105 | COc1c(C(C)(C)C)cc(C(=O)N2CCN(CCCCCC(c3ccc(F)cc3)c3ccc(F)cc3)CC2)cc1C(C)(C)C |  |
| 113 | 71 | Fc1ccc(OCCN2CCN(CCCCCC(c3ccc(F)cc3)c3ccc(F)cc3)CC2)cc1 |  |
| 179 | 141 | COc1cc(CNCCN2CCN(C(=O)CCCCC(c3ccc(F)cc3)c3ccc(F)cc3)CC2)cc(OC)c1OC |  |
|  |  | COc1c(C(C)(C)C)cc(CN2CCN(CCCCCC(c3ccc(F)cc3)c3ccc(F)cc3)CC2)cc1C(C)(C)C | IC50 [1]: 132 nM; IC50 [2]: 100 nM |
| 191 | 98 | COc1c(C(C)(C)C)cc(CN2CCN(C(=O)CCCCC(c3ccc(F)cc3)c3ccc(F)cc3)CC2)cc1C(C)(C)C |  |
| 150 | 85 | COc1cc(CN2CCN(CCCCCC(c3ccc(F)cc3)c3ccc(F)cc3)CC2=O)cc(OC)c1OC |  |
| 356 | 297 | CC(C)(C)c1cc(C(=O)N2CCN(C(=O)CCCCC(c3ccc(F)cc3)c3ccc(F)cc3)CC2)cc(C(C)(C)C)c1 |  |
| 599 | 354 | Fc1ccc(C(CCCCCN2CCN(CCOc3ccc(Cl)cc3Cl)CC2)c2ccc(F)cc2)cc1 |  |
|  |  | Fc1ccc(C(CCCCCN2CCN(Cc3ccc4c(c3)OCO4)CC2)c2ccc(F)cc2)cc1 | IC50 [1]: 182 nM; IC50 [2]: 134 nM |
| 168 | 109 | O=C(CCCCC(c1ccc(F)cc1)c1ccc(F)cc1)N1CCN(CCOc2ccccc2)CC1 |  |
|  |  | COc1cc(OCCN2CCN(C(=O)CCCCC(c3ccc(F)cc3)c3ccc(F)cc3)CC2)cc(OC)c1OC | IC50 [3]: 525 nM; IC50 [4]: 270 nM |
|  |  | CC(C)(C)c1ccc(CN2CCN(CCCCCC(c3ccc(F)cc3)c3ccc(F)cc3)CC2)cc1 | IC50 [1]: 748 nM; IC50 [2]: 354 nM |
| 370 | 310 | Cc1cc(OCCN2CCN(C(=O)CCCCC(c3ccc(F)cc3)c3ccc(F)cc3)CC2)c(C)c(C)c1NC(=O)OC(C)(C)C |  |
